Results taken from paper PMC9954134 (2023).

B1: wild-type CD44 standard form (wt CD44) [not stated] / iASPP (in lysates of cells transfected with CD44 constructs) [not stated] (parent complex)
chain 1: QIDLNITCRFAGVFHVEKNGRYSISRTEAADLCKAFNSTLPTMAQMEKALSIGFETCRYGFIEGHVVIPRIHPNSICAANNTGVYILTSNTSQYDTYCFNASAPPEEDCTSVTDLPNAFDGPITITIVNRDGTRYVQKGEYRTNPEDIYPSNPTDDDVSSGSSSERSSTSGGYIFYTFSTVHPIPDEDSPWITDSTDRIPATRDQDTFHPSGGSHTTHGSESDGHSHGSQEGGANTTSGPIRTPQIPEWLIILASLLALALILAVCIAVNSRRRCGQKKKLVINSGNGAVEDRKPSGLNGEASKSQEMVHLVNKESSETPDQFMTADETRNLQNVDMKIGV
chain 2: MDSEAFQSARDFLDMNFQSLAMKHMDLKQMELDTAAAKVDELTKQLESLWSDSPAPPGPQAGPPSRPPRYSSSSIPEPFGSRGSPRKAATDGADTPFGRSESAPTLHPYSPLSPKGRPSSPRTPLYLQPDAYGSLDRATSPRPRAFDGAGSSLGRAPSPRPGPGPLRQQGPPTPFDFLGRAGSPRGSPLAEGPQAFFPERGPSPRPPATAYDAPASAFGSSLLGSGGSAFAPPLRAQDDLTLRRRPPKAWNESDLDVAYEKKPSQTASYERLDVFARPASPSLQLLPWRESSLDGLGGTGKDNLTSATLPRNYKVSPLASDRRSDAGSYRRSLGSAGPSGTLPRSWQPVSRIPMPPSSPQPRGAPRQRPIPLSMIFKLQNAFWEHGASRAMLPGSPLFTRAPPPKLQPQPQPQPQPQSQPQPQLPPQPQTQPQTPTPAPQHPQQTWPPVNEGPPKPPTELEPEPEIEGLLTPVLEAGDVDEGPVARPLSPTRLQPALPPEAQSVPELEEVARVLAEIPRPLKRRGSMEQAPAVALPPTHKKQYQQIISRLFHRHGGPGPGGPEPELSPITEGSEARAGPPAPAPPAPIPPPAPSQSSPPEQPQSMEMRSVLRKAGSPRKARRARLNPLVLLLDAALTGELEVVQQAVKEMNDPSQPNEEGITALHNAICGANYSIVDFLITAGANVNSPDSHGWTPLHCAASCNDTVICMALVQHGAAIFATTLSDGATAFEKCDPYREGYADCATYLADVEQSMGLMNSGAVYALWDYSAEFGDELSFREGESVTVLRRDGPEETDWWWAALHGQEGYVPRNYFGLFPRVKPQRSKV

Variants of: B1
Experiment: co-immunoprecipitation (IP: iASPP, IB: CD44), densitometry; MCF-7 cells, transient transfection; parent: 1; read off a plot

| Variant | response |
| --- | --- |
| chain 1 QIDLNITCRFAGVFHVEKNGRYSISRTEAADLCKAFNSTLPTMAQMEKALSIGFETCRYGFIEGHVVIPRIHPNSICAANNTGVYILTSNTSQYDTYCFNASAPPEEDCTSVTDLPNAFDGPITITIVNRDGTRYVQKGEYRTNPEDIYPSNPTDDDVSSGSSSERSSTSGGYIFYTFSTVHPIPDEDSPWITDSTDRIPATRDQDTFHPSGGSHTTHGSESDGHSHGSQEGGANTTSGPIRTPQIPEWLIILASLLALALILAVCIAVNSRRRCGQKKKLVINSGNGAVEDRKPSGLNGEASKAQEMVHLVNKESSETPDQFMTADETRNLQNVDMKIGV [chain 1 S305A] | ~0.52 |
| chain 1 QIDLNITCRFAGVFHVEKNGRYSISRTEAADLCKAFNSTLPTMAQMEKALSIGFETCRYGFIEGHVVIPRIHPNSICAANNTGVYILTSNTSQYDTYCFNASAPPEEDCTSVTDLPNAFDGPITITIVNRDGTRYVQKGEYRTNPEDIYPSNPTDDDVSSGSSSERSSTSGGYIFYTFSTVHPIPDEDSPWITDSTDRIPATRDQDTFHPSGGSHTTHGSESDGHSHGSQEGGANTTSGPIRTPQIPEWLIILASLLALALILAVCIAVNSAAACGQAAALVINSGNGAVEDRKPSGLNGEASKSQEMVHLVNKESSETPDQFMTADETRNLQNVDMKIGV [chain 1 R272A, chain 1 R273A, chain 1 R274A, chain 1 K278A, chain 1 K279A, chain 1 K280A] | ~0.18 |
| chain 1 QIDLNITCRFAGVFHVEKNGRYSISRTEAADLCKAFNSTLPTMAQMEKALSIGFETCRYGFIEGHVVIPRIHPNSICAANNTGVYILTSNTSQYDTYCFNASAPPEEDCTSVTDLPNAFDGPITITIVNRDGTRYVQKGEYRTNPEDIYPSNPTDDDVSSGSSSERSSTSGGYIFYTFSTVHPIPDEDSPWITDSTDRIPATRDQDTFHPSGGSHTTHGSESDGHSHGSQEGGANTTSGPIRTPQIPEWLIILASLLALALILAVCIAVNSRRRCGQKKKLVINSGNGAVEDRKPAGLNGEASKSQEMVHLVNKESSETPDQFMTADETRNLQNVDMKIGV [chain 1 S296A] | ~1.1 |
| chain 1 QIDLNITCRFAGVFHVEKNGRYSISRTEAADLCKAFNSTLPTMAQMEKALSIGFETCRYGFIEGHVVIPRIHPNSICAANNTGVYILTSNTSQYDTYCFNASAPPEEDCTSVTDLPNAFDGPITITIVNRDGTRYVQKGEYRTNPEDIYPSNPTDDDVSSGSSSERSSTSGGYIFYTFSTVHPIPDEDSPWITDSTDRIPATRDQDTFHPSGGSHTTHGSESDGHSHGSQEGGANTTSGPIRTPQIPEWLIILASLLALALILAVCIAVNARRRCGQKKKLVINSGNGAVEDRKPSGLNGEASKSQEMVHLVNKESSETPDQFMTADETRNLQNVDMKIGV [chain 1 S271A] | ~0.52 |
| chain 1 QIDLNITCRFAGVFHVEKNGRYSISRTEAADLCKAFNSTLPTMAQMEKALSIGFETCRYGFIEGHVVIPRIHPNSICAANNTGVYILTSNTSQYDTYCFNASAPPEEDCTSVTDLPNAFDGPITITIVNRDGTRYVQKGEYRTNPEDIYPSNPTDDDVSSGSSSERSSTSGGYIFYTFSTVHPIPDEDSPWITDSTDRIPATRDQDTFHPSGGSHTTHGSESDGHSHGSQEGGANTTSGPIRTPQIPEWLIILASLLALALILAVCIAVNSRRRCGQKKKLVINSGNGAVEDINPSGLNGEASKSQEMVHLVNKESSETPDQFMTADETRNLQNVDMKIGV [chain 1 R293I, chain 1 K294N] | ~0.2 |

Variants of: B1
Experiment: co-immunoprecipitation (IP: iASPP, IB: CD44), densitometry; HEK293 cells, transient transfection; parent: 0.58; read off a plot

| Variant | response |
| --- | --- |
| chain 1 QIDLNITCRFAGVFHVEKNGRYSISRTEAADLCKAFNSTLPTMAQMEKALSIGFETCRYGFIEGHVVIPRIHPNSICAANNTGVYILTSNTSQYDTYCFNASAPPEEDCTSVTDLPNAFDGPITITIVNRDGTRYVQKGEYRTNPEDIYPSNPTDDDVSSGSSSERSSTSGGYIFYTFSTVHPIPDEDSPWITDSTDRIPATRDQDTFHPSGGSHTTHGSESDGHSHGSQEGGANTTSGPIRTPQIPEWLIILASLLALALILAVCIAVNSRRRCGQKKKLVINSGNGAVEDRKPSGLNGEASKAQEMVHLVNKESSETPDQFMTADETRNLQNVDMKIGV [chain 1 S305A] | ~0.77 |
| chain 1 QIDLNITCRFAGVFHVEKNGRYSISRTEAADLCKAFNSTLPTMAQMEKALSIGFETCRYGFIEGHVVIPRIHPNSICAANNTGVYILTSNTSQYDTYCFNASAPPEEDCTSVTDLPNAFDGPITITIVNRDGTRYVQKGEYRTNPEDIYPSNPTDDDVSSGSSSERSSTSGGYIFYTFSTVHPIPDEDSPWITDSTDRIPATRDQDTFHPSGGSHTTHGSESDGHSHGSQEGGANTTSGPIRTPQIPEWLIILASLLALALILAVCIAVNSAAACGQAAALVINSGNGAVEDRKPSGLNGEASKSQEMVHLVNKESSETPDQFMTADETRNLQNVDMKIGV [chain 1 R272A, chain 1 R273A, chain 1 R274A, chain 1 K278A, chain 1 K279A, chain 1 K280A] | ~1.7 |
| chain 1 QIDLNITCRFAGVFHVEKNGRYSISRTEAADLCKAFNSTLPTMAQMEKALSIGFETCRYGFIEGHVVIPRIHPNSICAANNTGVYILTSNTSQYDTYCFNASAPPEEDCTSVTDLPNAFDGPITITIVNRDGTRYVQKGEYRTNPEDIYPSNPTDDDVSSGSSSERSSTSGGYIFYTFSTVHPIPDEDSPWITDSTDRIPATRDQDTFHPSGGSHTTHGSESDGHSHGSQEGGANTTSGPIRTPQIPEWLIILASLLALALILAVCIAVNSRRRCGQKKKLVINSGNGAVEDRKPAGLNGEASKSQEMVHLVNKESSETPDQFMTADETRNLQNVDMKIGV [chain 1 S296A] | ~0.98 |
| chain 1 QIDLNITCRFAGVFHVEKNGRYSISRTEAADLCKAFNSTLPTMAQMEKALSIGFETCRYGFIEGHVVIPRIHPNSICAANNTGVYILTSNTSQYDTYCFNASAPPEEDCTSVTDLPNAFDGPITITIVNRDGTRYVQKGEYRTNPEDIYPSNPTDDDVSSGSSSERSSTSGGYIFYTFSTVHPIPDEDSPWITDSTDRIPATRDQDTFHPSGGSHTTHGSESDGHSHGSQEGGANTTSGPIRTPQIPEWLIILASLLALALILAVCIAVNARRRCGQKKKLVINSGNGAVEDRKPSGLNGEASKSQEMVHLVNKESSETPDQFMTADETRNLQNVDMKIGV [chain 1 S271A] | ~0.66 |

Variants of: B1
Experiment: co-immunoprecipitation (IP: iASPP, IB: CD44), densitometry; HEK293 cells, transient transfection; parent: 1.1; read off a plot

| Variant | response |
| --- | --- |
| chain 1 QIDLNITCRFAGVFHVEKNGRYSISRTEAADLCKAFNSTLPTMAQMEKALSIGFETCRYGFIEGHVVIPRIHPNSICAANNTGVYILTSNTSQYDTYCFNASAPPEEDCTSVTDLPNAFDGPITITIVNRDGTRYVQKGEYRTNPEDIYPSNPTDDDVSSGSSSERSSTSGGYIFYTFSTVHPIPDEDSPWITDSTDRIPATRDQDTFHPSGGSHTTHGSESDGHSHGSQEGGANTTSGPIRTPQIPEWLIILASLLALALILAVCIAVNSAAACGQAAALVINSGNGAVEDRKPSGLNGEASKSQEMVHLVNKESSETPDQFMTADETRNLQNVDMKIGV [chain 1 R272A, chain 1 R273A, chain 1 R274A, chain 1 K278A, chain 1 K279A, chain 1 K280A] | ~2.4 |
| chain 1 QIDLNITCRFAGVFHVEKNGRYSISRTEAADLCKAFNSTLPTMAQMEKALSIGFETCRYGFIEGHVVIPRIHPNSICAANNTGVYILTSNTSQYDTYCFNASAPPEEDCTSVTDLPNAFDGPITITIVNRDGTRYVQKGEYRTNPEDIYPSNPTDDDVSSGSSSERSSTSGGYIFYTFSTVHPIPDEDSPWITDSTDRIPATRDQDTFHPSGGSHTTHGSESDGHSHGSQEGGANTTSGPIRTPQIPEWLIILASLLALALILAVCIAVNSRRRCGQKKKLVINSGNGAVEDINPSGLNGEASKSQEMVHLVNKESSETPDQFMTADETRNLQNVDMKIGV [chain 1 R293I, chain 1 K294N] | ~0.6 |
